Values quoted from earlier work as cited in patent US8809354B2, “3-amino-2-(4-nitrophenyl)-4-(3H)-quinazolinone or derivatives thereof for treating or preventing antiviral infections” (priority 2011, dated 2014).

System: HCV
Details: patients; cited from earlier work

NC(=O)c1ncn([C@@H]2O[C@H](CO)[C@@H](O)[C@H]2O)n1 [Ribavirin, 1-β-D-ribofuranosyl-1-1,2,4-triazole-3-carboxamide]
Toxicity: known to induce anemia
